pIC50: −log10 of the molar value.
Columns and labels:
[1] = biological target: T1, Endothelin receptor type B (Homo sapiens, UniProt P24530); test: Inhibitory activity against human endothelin B receptor
T1 sequence (P24530 whole entry): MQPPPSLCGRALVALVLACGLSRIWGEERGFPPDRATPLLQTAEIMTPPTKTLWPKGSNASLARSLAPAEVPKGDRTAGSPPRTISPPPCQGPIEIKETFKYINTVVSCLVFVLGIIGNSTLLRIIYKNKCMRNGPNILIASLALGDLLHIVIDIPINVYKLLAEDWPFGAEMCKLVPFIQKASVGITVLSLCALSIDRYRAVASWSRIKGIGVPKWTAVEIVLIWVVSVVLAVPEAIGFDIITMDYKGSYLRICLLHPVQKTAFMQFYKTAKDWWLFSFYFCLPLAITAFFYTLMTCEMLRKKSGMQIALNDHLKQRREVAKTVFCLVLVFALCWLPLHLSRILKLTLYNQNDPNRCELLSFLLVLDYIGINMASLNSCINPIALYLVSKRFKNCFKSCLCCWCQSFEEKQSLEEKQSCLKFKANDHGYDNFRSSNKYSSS

The chains behind the UniProt entries cited, without tags or fusion partners.
UniProt P25101, whole entry: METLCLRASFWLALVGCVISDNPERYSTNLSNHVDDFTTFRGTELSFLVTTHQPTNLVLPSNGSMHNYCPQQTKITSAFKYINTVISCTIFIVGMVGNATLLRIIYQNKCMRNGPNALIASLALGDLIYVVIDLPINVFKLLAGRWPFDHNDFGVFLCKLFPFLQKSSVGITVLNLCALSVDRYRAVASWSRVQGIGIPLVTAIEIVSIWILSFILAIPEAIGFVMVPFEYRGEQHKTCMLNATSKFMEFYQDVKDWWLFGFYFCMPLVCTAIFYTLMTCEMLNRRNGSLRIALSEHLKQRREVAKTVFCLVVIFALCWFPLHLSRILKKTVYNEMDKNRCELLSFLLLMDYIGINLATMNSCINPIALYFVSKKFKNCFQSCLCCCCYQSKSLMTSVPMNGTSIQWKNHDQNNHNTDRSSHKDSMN

Endothelin-1 receptor = Endothelin-1 receptor (Homo sapiens, UniProt P25101); test: Inhibitory activity against human endothelin A receptor
In short: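 Radioligand binding on human ETA receptor expressed in CHO cells, measuring displacement of [125I]ET-1. Eleven concentrations from 10^-10 to 10^-5 M were tested. IC50 was calculated from the mean of two measurements.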

pIC50 [1]: 4.89
pIC50 (Endothelin-1 receptor): 9.31
Compound: CCCCN(CCCC)C(=O)CN1C[C@H](c2cc(OC)c3c(c2)OCO3)[C@@H](C(=O)O)[C@@H]1CC(C)(C)CCC [ABT-546]

Source: ChEMBL document CHEMBL1134271 (J Med Chem, 2001)
